# Laboratory results reported in EP1142587A1 (priority 1998, dated 2000).
# The chains behind the UniProt entries cited, without tags or fusion partners.
# UniProt P61169, whole entry: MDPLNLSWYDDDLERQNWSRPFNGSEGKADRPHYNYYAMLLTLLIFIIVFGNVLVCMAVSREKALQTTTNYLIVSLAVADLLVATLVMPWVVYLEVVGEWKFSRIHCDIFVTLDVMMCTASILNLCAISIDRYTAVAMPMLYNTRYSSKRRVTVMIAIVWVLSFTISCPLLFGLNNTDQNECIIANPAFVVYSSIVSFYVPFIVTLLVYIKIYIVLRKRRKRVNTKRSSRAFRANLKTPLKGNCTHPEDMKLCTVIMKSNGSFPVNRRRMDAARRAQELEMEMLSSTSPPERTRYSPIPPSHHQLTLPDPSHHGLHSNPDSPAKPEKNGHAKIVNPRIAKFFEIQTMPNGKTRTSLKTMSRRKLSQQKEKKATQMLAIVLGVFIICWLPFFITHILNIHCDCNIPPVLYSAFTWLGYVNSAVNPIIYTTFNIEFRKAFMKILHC
# This is a selection: effects in other tests are not listed, and their absence says nothing.
# Molecular target: dopamine D2 receptor (Rattus norvegicus, UniProt P61169)
# Experiment: Binding affinity with a dopamine D2 receptor ([3H]-spiperone membrane binding)
# Conditions: read-out: D2Ki value; rat corpus striatum membrane fraction, 0.1nM [3H]-spiperone, 37°C 30 minutes
structure (smiles),measurement,value
O=c1[nH]c2ccccc2n1C1CCN(Cc2ccc(Cl)nc2)CC1,Ki,0.076 µM
